Consider one substance from patent publication US11141488B2, “Compositions comprising biodegradable copolymers for prolonged local release of an antibiotic” (DEXCEL PHARMA TECHNOLOGIES LTD., priority 2017, dated 2021).

Series [1] in a line: Local and systemic gentamicin levels after single intramuscular injection in rabbits. The class given is in vivo, New Zealand White (NZW) rabbits. To be noted: 24 hours post administration; single 0.2 ml IM injection of alternating or semi-alternating RA:SA (70:30) copolymer with 20 wt % gentamicin sulfate. Here is the method:
Prior to injection, a skin incision was made in order to expose the muscle. The site of injection was marked by a non-absorbable suture at the upper layer of the muscle. […] Following injection, the skin was closed using surgical clips. The procedure was performed under general anesthesia. Animals were clinically observed for up to 8 weeks post-dosing, if applicable.
Tissue collection was performed by resecting the right paravertebral muscle, transversally slicing into ˜1 cm thick serial sections (total of 7 serial sections), when the injection site was located at the core center of the central section. […] At the injection site, one sample ( ? ) was taken.

Series [2] is described as follows: Systemic gentamicin levels after single intraosseous injection in rat model of osteomyelitis. In kind it is in vivo, Sprague Dawley (SD) rats. The settings on record: 24 hours post administration; single 0.05 ml intraosseous dose of RA:SA (70:30) copolymer with 20 wt % gentamicin sulfate; S. Aureus osteomyelitis model. Here is the method: In order to determine the in-vivo systemic release levels of gentamicin following intraosseous administration, an animal model of osteomyelitis was used.
Animals were subjected to the following procedure: Following local anesthetics at least 30 minutes prior to surgical procedure, animals were anesthetized and the right hind limb was clipped of fur using an electric clipper. Thereafter, the clipped area was scrubbed using 4% w/v Chlorhexidine gluconate (septal scrub®) and then wiped with ethanol 70%. Longitudinal incision of the skin was made over the medial aspect of the proximal right tibia, about 1 cm in length. A cortical bone defect was produced by drilling a hole using 0.14 mm burr, just distal to the tibial tuberosity to through the cortical bone until the medullary cavity was reached. Thereafter, 19-21 G needle was introduced through the hole and along the bone to enable further insertion of the bacteria suspension and saline.
Osteomyelitis was induced by a single 20 μl insertion of bacterial suspension of S. Aureus to the medullary cavity of the right tibia, followed by flush with 20 μl of physiological saline. The tibial defect was closed by the use of bone wax and the skin was closed by surgical clips and polydine solution was topically applied.

The conditions of series [3]: 24 hours post administration; single 0.2 ml SC injection of alternating or semi-alternating RA:SA (70:30) copolymer with 20 wt % gentamicin sulfate.

Like-named read-outs stand apart in the source and are kept apart here.

In the case of gentamicin, the “Total gentamicin concentration in rabbit plasma” value in series [1] was 0.06 µg/mL. For the same substance, the “Total gentamicin concentration in rat plasma” value is 0.19 µg/mL in series [2] and 0.51 µg/mL in series [3].
